Patent US9090618B2, “Substituted benzimidazole-type piperidine compounds and uses thereof” (dated 2015)

Protein sequences, listed by entry. Tags and fused reporters are not part of them. Lines headed by an entry give the natural chain unless they say otherwise; changes in a name come on top.
UniProt P41143: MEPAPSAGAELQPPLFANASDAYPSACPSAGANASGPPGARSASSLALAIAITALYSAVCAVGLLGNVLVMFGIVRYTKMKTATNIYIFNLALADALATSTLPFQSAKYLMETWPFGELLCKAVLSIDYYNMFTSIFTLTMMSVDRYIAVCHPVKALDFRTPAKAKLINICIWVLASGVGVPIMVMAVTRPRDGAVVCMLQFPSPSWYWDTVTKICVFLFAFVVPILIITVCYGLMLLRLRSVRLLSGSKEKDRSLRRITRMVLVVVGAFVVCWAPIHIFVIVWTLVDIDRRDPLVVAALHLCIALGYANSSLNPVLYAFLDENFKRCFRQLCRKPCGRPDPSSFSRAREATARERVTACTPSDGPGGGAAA
UniProt P35372: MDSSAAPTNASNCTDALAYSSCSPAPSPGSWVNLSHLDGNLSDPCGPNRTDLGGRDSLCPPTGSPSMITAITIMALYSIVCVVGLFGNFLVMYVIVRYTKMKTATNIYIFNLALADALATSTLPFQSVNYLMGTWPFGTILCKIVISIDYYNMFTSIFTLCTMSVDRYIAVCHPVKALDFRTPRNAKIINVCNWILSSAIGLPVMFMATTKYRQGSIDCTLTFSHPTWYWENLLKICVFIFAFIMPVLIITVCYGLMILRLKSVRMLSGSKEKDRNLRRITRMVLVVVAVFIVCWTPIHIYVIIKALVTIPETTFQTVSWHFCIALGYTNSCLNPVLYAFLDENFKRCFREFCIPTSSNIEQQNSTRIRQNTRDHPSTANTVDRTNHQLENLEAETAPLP
UniProt P41145: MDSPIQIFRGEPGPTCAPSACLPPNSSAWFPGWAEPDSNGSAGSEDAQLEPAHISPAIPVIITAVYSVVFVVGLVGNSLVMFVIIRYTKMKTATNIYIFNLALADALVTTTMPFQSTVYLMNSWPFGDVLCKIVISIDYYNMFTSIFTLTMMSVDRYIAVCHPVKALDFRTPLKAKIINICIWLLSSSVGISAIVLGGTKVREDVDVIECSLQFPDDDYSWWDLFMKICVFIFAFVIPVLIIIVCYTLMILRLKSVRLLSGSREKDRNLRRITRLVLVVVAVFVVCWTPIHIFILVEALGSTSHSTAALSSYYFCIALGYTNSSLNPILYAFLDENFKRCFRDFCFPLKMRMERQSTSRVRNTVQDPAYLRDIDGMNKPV
UniProt P41146: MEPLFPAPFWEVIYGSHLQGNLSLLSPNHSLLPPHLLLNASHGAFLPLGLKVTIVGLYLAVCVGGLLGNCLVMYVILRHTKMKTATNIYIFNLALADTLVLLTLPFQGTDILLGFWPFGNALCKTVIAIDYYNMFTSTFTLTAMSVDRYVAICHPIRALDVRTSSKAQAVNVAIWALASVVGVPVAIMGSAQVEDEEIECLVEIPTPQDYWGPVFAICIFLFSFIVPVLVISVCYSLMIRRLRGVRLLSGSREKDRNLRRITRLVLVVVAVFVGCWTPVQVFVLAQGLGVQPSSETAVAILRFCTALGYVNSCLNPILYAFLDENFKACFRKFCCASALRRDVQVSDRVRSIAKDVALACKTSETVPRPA

Experiments:
[1] = target: recombinant delta opioid receptor expressed in CHO-K1 cells (Homo sapiens (Human), UniProt P41143); assay: In vitro delta-opioid receptor binding assay ([3H]-Naltrindole displacement); details: read-out: Ki [Average ± Std Deviation] Opioid Receptor Delta, procedure of Example 27
human μ-opioid receptors = human μ-opioid receptors (Homo sapiens (Human), UniProt P35372); assay: In vitro mu-opioid receptor binding assay ([3H]-diprenorphine displacement); details: read-out: Ki [Average ± Std Deviation] Opioid Receptor Mu, procedure of Example 23
[2] = target: human kappa opioid receptor (Homo sapiens (Human), UniProt P41145); assay: In vitro kappa-opioid receptor binding assay ([3H]-U69,593 displacement); details: read-out: Ki [Average ± Std Deviation] Opioid Receptor Kappa, procedure of Example 25
[3] = target: T1, human opioid receptor-like (ORL-1) (Homo sapiens (Human), UniProt P41146); assay: In vitro ORL-1 receptor binding assay ([3H]-nociceptin displacement); details: read-out: Ki [Average ± Std Deviation] ORL-1, procedure of Example 21
[4] = target: T1, human opioid receptor-like (ORL-1); assay: In vitro ORL-1 receptor [35S]GTPγS functional assay; details: ORL-1 receptor activity response, procedure of Example 22

2-(((E)-((1-((1R,1′R,3r,5S,5′S)-[3,9′-bi(9′-azabicyclo[3.3.1]nonan)]-3′-yl)-1H-benzo[d]imidazol-2-yl)methylene)amino)oxy)acetic acid
Ki [1]: 3960 nM
Ki (human μ-opioid receptors): 1500 nM
Ki [2]: 1540 nM
Ki [3]: 102 nM
GTPγS ORL-1 Emax [mean ± SEM] [4]: 34.7 ± 1.5%
EC50 ([4]; read-out: GTPγS ORL-1 EC50 [mean ± SEM]): 84.2 nM
